In patent US7550150B2, “Methods of treating or preventing a disease, disorder or condition associated with a viral infection” (Barros Research Institute, priority 2005, dated 2009):
Where two headings read alike, the source gives them in different places.

Legend:
[1] = BALB/c, mouse, in vivo, ip, 75 mg/kg/day
[2] = C57BL/6, mouse, in vivo, ip, 75 mg/kg/day
[3] = BALB/c, mouse, in vivo, ip
[4] = BALB/c, mouse, in vivo, ip, 75 mg/kg/day; remark: listed apart in the source
[5] = C57BL/6, mouse, in vivo, ip, 75 mg/kg/day; remark: listed apart in the source

Measured: Tox Controls Surv/Total

NC(=O)c1ncn([C@@H]2O[C@H](CO)[C@@H](O)[C@H]2O)n1 [Ribavirin]
3/3: all assays above
